Values quoted from earlier work, collected in patent publication US8084059B2, “Antidepressant dosage form” (ALZA Corporation, priority 1993, dated 2011).

System: neuronal uptake of serotonin
Conditions: in vitro

Q: With `COc1ccc(C(CN(C)C)C2(O)CCCCC2)cc1` (stereo not shown) [1-[2-(dimethylamino)-1-(4-methoxyphenyl)ethyl]cyclohexanol] as the compound, how does the “neuronal uptake of serotonin” value read?
A: Its value is “prevents”.
